According to patent US9855265B2, “Methods for treating cancer with TrkA receptor tyrosine kinase antagonists” (VM Oncology LLC, priority 2014, dated 2018):

Test system: PANC-1 subcutaneous human pancreatic cancer xenografts
Test: PANC-1 Subcutaneous Human Pancreatic Cancer Xenograft Mouse Model
Settings: Day 14; gemcitabine 10 mg/kg (alone or with Compound-12, see label)

For `Nc1ccn([C@@H]2O[C@H](CO)[C@@H](O)C2(F)F)c(=O)n1` [Gemcitabine, gemcitabine], which “Tumor volume (Mean ± SEM)” value is on record?
Its value is 174 ± 9 mm^3.
